The numbers were not newly measured in publication PMC6934973 (Iranian Journal of Pharmaceutical Research : IJPR, 2019), which cites them from elsewhere.

For this data set the following is noted: result in words; cited from earlier work.

On to `CO[C@]12CC[C@@]3(C[C@@H]1[C@](C)(O)C(C)(C)C)[C@H]1Cc4ccc(O)c5c4[C@@]3(CCN1)[C@H]2O5`, for which the blood-brain-barrier penetration entry is recorded as “very limited blood-brain-barrier penetration”.
